# Earlier results as cited in publication PMC4605401 (2009).
# The chains behind the UniProt entries cited, without tags or fusion partners. Where a name states a change or a piece, a line headed by the entry shows the natural chain unless it says otherwise.
# UniProt P47900: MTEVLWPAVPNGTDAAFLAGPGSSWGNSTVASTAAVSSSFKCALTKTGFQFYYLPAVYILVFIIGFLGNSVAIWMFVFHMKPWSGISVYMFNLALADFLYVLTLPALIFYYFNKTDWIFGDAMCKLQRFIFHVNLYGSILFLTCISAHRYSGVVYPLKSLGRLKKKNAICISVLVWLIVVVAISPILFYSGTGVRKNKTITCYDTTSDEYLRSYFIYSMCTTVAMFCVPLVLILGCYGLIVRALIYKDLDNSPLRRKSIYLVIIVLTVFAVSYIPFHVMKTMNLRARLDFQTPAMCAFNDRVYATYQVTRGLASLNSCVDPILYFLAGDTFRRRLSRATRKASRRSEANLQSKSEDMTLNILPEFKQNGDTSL
# What was measured:
# [1] = target: P2Y1 receptor (Homo sapiens, UniProt P47900); settings: read-out: previously reported Kd, CMAC approach, earlier CMAC(1321N1P2Y1) column, ref [6]; cited from earlier work
# [2] = target: P2Y1 receptor; settings: read-out: previously reported Kd, standard membrane binding, ref [11]; cited from earlier work
compound,measurement,setting,value
CSc1nc(N)c2ncn([C@@H]3O[C@H](COP(=O)(O)OP(=O)(O)O)[C@@H](O)[C@H]3O)c2n1 [2-MeSADP],pKd,[1],6.73
same,pKd,[2],7.30

# pKd: −log10 of the molar value.
